ChEMBL document CHEMBL3751661, “The influence of 5-HT(2A) activity on a 5-HT(2C) specific in vivo assay used for early identification of multiple acting SERT and 5-HT(2C) receptor ligands” (Bioorg Med Chem Lett, 2016)

Protein sequences, listed by entry. Tags and fused reporters are not part of them. Lines headed by an entry give the natural chain unless they say otherwise; changes in a name come on top.
UniProt P28335: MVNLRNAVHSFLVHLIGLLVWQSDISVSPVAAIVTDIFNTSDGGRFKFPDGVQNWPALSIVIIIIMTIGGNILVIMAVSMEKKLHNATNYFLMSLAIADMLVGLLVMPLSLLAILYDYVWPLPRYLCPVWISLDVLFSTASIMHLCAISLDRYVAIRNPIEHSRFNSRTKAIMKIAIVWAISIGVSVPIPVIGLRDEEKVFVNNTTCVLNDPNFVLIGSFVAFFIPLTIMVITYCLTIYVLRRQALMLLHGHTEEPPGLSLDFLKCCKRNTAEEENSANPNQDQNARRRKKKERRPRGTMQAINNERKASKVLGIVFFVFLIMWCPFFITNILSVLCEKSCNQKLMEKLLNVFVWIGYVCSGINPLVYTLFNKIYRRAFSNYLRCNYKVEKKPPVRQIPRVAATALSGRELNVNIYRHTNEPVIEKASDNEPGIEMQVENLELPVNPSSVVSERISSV
UniProt P28223, whole entry: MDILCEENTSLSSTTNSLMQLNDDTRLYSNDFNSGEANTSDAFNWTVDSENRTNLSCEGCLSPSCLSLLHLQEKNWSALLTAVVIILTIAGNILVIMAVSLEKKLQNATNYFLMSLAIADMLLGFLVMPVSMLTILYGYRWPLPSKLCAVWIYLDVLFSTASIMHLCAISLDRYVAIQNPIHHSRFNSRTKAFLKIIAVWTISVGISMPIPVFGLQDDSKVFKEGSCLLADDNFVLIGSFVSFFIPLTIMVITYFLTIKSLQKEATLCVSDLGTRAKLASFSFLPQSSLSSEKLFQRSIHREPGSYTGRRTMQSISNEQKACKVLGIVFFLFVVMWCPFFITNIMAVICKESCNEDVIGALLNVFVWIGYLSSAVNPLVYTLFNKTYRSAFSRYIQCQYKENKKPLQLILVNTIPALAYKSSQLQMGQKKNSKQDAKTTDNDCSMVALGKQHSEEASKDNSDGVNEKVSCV

Tests used:
[1] = biological target: 5-hydroxytryptamine receptor 2C (Homo sapiens, UniProt P28335); experiment: Binding affinity to 5HT2C (unknown origin)
[2] = biological target: 5-hydroxytryptamine receptor 2A (Homo sapiens, UniProt P28223); experiment: Binding affinity to 5HT2A (unknown origin)

Clc1cccc(N2CCNCC2)c1 [CHLOROPHENYLPIPERAZINE]
Ki [1]: 27.7 nM | Ki [2]: 273 nM
